This note sets out measurements from patent US12139488B2, “Pyrido[3,2-d]pyrimidine compounds uses thereof for treating a proliferative disease” (Universite de Montreal, priority 2021, dated 2024).

The assay concerns pERK in HCT-116 cells (KRAS G13D). As to the kind of experiment: Phospho-ERK inhibition (AlphaLISA SureFire Ultra p-ERK 1/2), HCT116. The conditions noted are these: read-out: HCT116 pERK IC50; HCT116 cells; class symbol. As to the method:
All cancer cell lines (A375, A101D, A2058, RKO, HT29 SK-MEL 30, IPC298, HepG2, HCT-116, Lovo, SWV620, SW480, NCI-H358, NCI-H2122, Calu-6, NCIH2087, NCIH1755, NCIH1666 and Mewo) were obtained from ATCC and cultured in RPMI-1640 medium (Gibco) supplemented with 5% heat inactivated fetal bovine serum (FBS, Wisent) at 37° C. under 5% CO2. Cells were maintained in T175 flasks (Greiner). They were passaged by removing the culture medium, washing once in 10 mL of room temperature Phosphate Buffered Saline (PBS; Wisent) and incubating at 37° C. with 2 mL of 0.05% Trypsin (Thermo-Fisher). Trypsin was then inactivated by adding complete growth medium and the cells were then replated in a T175 culture dish at the appropriate dilution. All cell lines were routinely tested for mycoplasma contamination. Tissue type and mutational status of each cell line can be found in Table B.
AlphaLISA® SureFire® Ultra™ p-ERK 1/2 (Thr202/Tyr204) analysis was conducted on cells plated in 100 μL of complete RPMI-1640 growth medium in 96-well flat-bottomed transparent dishes (Costar) at a density indicated in Table C. Cells were maintained overnight at 37° C. under 5% CO2 before treatment with compounds' dilution series for one hour. The cell density in cells/cm^2 corresponds to cell number divided by the area of one well of a 96-well plate ([…]).
In a dilution series 100 μL/well of test substance dilution prepared in complete RPMI-1640 growth media was added to the cells. The dilution series is selected so that ten concentrations cover a range from 10 μM to 0.33 nM. If necessary the initial concentration of 10 μM is increased to 100 μM or lowered to 1 μM (as in the case of A375 and H1666 cells, which are generally more sensitive to the compounds) and further dilution is carried out accordingly. The final concentration of DMSO in the assay is set at 0.5%.
After treatment, media was removed and cells were lysed in 50 μL of 1× AlphaScreen Ultra Lysis Buffer (Perkin Elmer). The AlphaLISA® SureFire® Ultra™ p-ERK 1/2 (Thr202/Tyr2O4) (PerkinElmer) reactions were performed with 5 μL of cell lysate according to the manufacturer's specifications in 384-well proxyplates (Perkin Elmer) followed by overnight incubation of the reactions at room temperature in a humidified chamber. After completion of the reactions, the signals were recorded on an EnVision plate reader (Perkin Elmer) using built in AlphaLISA® settings.
The effect of each compound dilution on the pERK signal was expressed in % inhibition and calculated as follows. An internal 100% inhibition control ([…] trametinib, cat #HY-10999; MedChem Express; CAS #871700-17-3) was included in each plate and used as a measure of pERK background. First, the value obtained for trametinib was subtracted from each data point. The average of DMSO (vehicle) controls (set as 0% inhibition) was established and used to calculate % inhibition: % inhibition=100*(1-((pERK signalcompound)/(pERK signalDMSO)))
The ability of each compound to inhibit pERK signal was expressed as an IC50 value obtained by plotting the inhibition values for each data point of a dilution series and fitting the obtained curves using a log(agonist) versus response-variable slope (four parameters) function using GraphPadPrism (V7.0) or Dotmatics Screening Ultra platform.
When present, paradoxical pERK induction is inferred from the negative % inhibition values observed in the pERK IC50 curves of a compound.
Take `O=S(=O)(Nc1ccc(F)c(Nc2ncnc3ccc(-n4cc(S(=O)(=O)C5=C(O)CCCC5)c5ccccc54)nc23)c1F)c1cccc(Cl)c1Cl`: the IC50 is less than 500 nM.

For `COc1ccc(S(=O)(=O)Nc2ccc(F)c(Nc3ncnc4ccc(-n5nnc6ccccc65)nc34)c2F)c(C)c1Cl`, the IC50 is less than 500 nM.

Regarding `O=S(=O)(Nc1ccc(F)c(Nc2ncnc3ccc(-n4cnc5c(Cl)ccnc54)nc23)c1F)c1cccc(Cl)c1Cl`, the 50% inhibitory concentration (IC50) was 1000 to 10000 nM.

In the case of `O=S(=O)(Nc1ccc(F)c(Nc2ncnc3ccc(-c4ccn[nH]4)nc23)c1F)c1cccc(Cl)c1Cl`, the IC50 is 1000 to 10000 nM.

For the compound `CC1(NS(=O)(=O)c2cn(-c3ccc4ncnc(Nc5c(F)ccc(NS(=O)(=O)c6cccc(Cl)c6Cl)c5F)c4n3)c3ccccc23)COC1`, the IC50 is less than 500 nM.

`Cc1c(F)cccc1S(=O)(=O)Nc1ccc(F)c(Nc2ncnc3ccc(-n4cnc5cc(F)c(F)cc54)nc23)c1F`: the half-maximal inhibitory concentration (IC50) is less than 500 nM.

For `Cc1nccc(S(=O)(=O)Nc2ccc(F)c(Nc3ncnc4ccc(-n5cnc6c(N)cccc65)nc34)c2F)c1C`, the IC50 was in the range of 1000 to 10000 nM.

As to `N#Cc1cn(-c2ccc3ncnc(Nc4c(F)ccc(NS(=O)(=O)c5cccc(Cl)c5Cl)c4F)c3n2)c2ccccc12`, the IC50 is 500 to 1000 nM.

With `O=S(=O)(Nc1ccc(F)c(Nc2ncnc3ccc(-n4cnc5c(N6CCOCC6)cccc54)nc23)c1F)c1cccc(Cl)c1Cl`, the IC50 is less than 500 nM.

Turning to `CC(C)C(=O)c1cn(-c2ccc3ncnc(Nc4c(F)ccc(NS(=O)(=O)c5cccc(Cl)c5Cl)c4F)c3n2)c2ccccc12`, the IC50 was in the range of 1000 to 10000 nM.

With `Cc1c(F)cccc1S(=O)(=O)Nc1ccc(F)c(Nc2ncnc3ccc(-n4cc(S(=O)(=O)N5CCC(O)CC5)c5ccccc54)nc23)c1F`, the IC50 was less than 500 nM.

Regarding `O=S(=O)(Nc1ccc(F)c(Nc2ncnc3ccc(-n4cc(S(=O)(=O)C5CCN(Cc6cn[nH]c6)CC5)c5ccccc54)nc23)c1F)c1cccc(Cl)c1Cl`, the IC50 is less than 500 nM.

As to `O=S(=O)(Nc1ccc(F)c(Nc2ncnc3ccc(-n4cc(S(=O)(=O)C5CCCC5)c5ccccc54)nc23)c1F)c1cccc(Cl)c1Cl`, the 50% inhibitory concentration (IC50) was less than 500 nM.

As for `Cc1c(F)cccc1S(=O)(=O)Nc1ccc(F)c(Nc2ncnc3ccc(-n4nc(C(=O)N(C)CCN5CCOCC5)c5ccccc54)nc23)c1F`, the half-maximal inhibitory concentration (IC50) was less than 500 nM.

In the case of `Cc1cccc(S(=O)(=O)Nc2ccc(F)c(Nc3ncnc4ccc(-n5cnc6c(N)cccc65)nc34)c2F)c1Cl`, the IC50 was less than 500 nM.

Regarding `Nc1cccc2c1ncn2-c1ccc2ncnc(Nc3c(F)ccc(NS(=O)(=O)c4ccccc4C(F)F)c3F)c2n1`, the 50% inhibitory concentration (IC50) is less than 500 nM.

Turning to `O=S(=O)(Nc1ccc(F)c(Nc2ncnc3ccc(-n4cc(S(=O)(=O)N5CC(C(F)F)C5)c5ccccc54)nc23)c1F)c1cccc(Cl)c1Cl`, the IC50 is less than 500 nM.

As for `Cc1c(Cl)cccc1S(=O)(=O)Nc1ccc(F)c(Nc2ncnc3ccc(-n4cc(S(=O)(=O)N5CCC(O)CC5)c5ccccc54)nc23)c1F`, the IC50 was less than 500 nM.

For `C[C@H]1COC[C@@H]1NS(=O)(=O)c1cn(-c2ccc3ncnc(Nc4c(F)ccc(NS(=O)(=O)c5cccc(Cl)c5Cl)c4F)c3n2)c2ccccc12`, the IC50 is less than 500 nM.

Regarding `COc1ccc(S(=O)(=O)Nc2ccc(F)c(Nc3ncnc4ccc(-n5cnc6c(N)cccc65)nc34)c2F)c(C)c1F`, the IC50 was less than 500 nM.

As for `C[C@H]1COCCN1S(=O)(=O)c1cn(-c2ccc3ncnc(Nc4c(F)ccc(NS(=O)(=O)c5cccc(Cl)c5Cl)c4F)c3n2)c2ccccc12`, the IC50 was less than 500 nM.

On to `O=S(=O)(Nc1ccc(F)c(Nc2ncnc3ccc(-n4cnc5c(N6CC[C@H](O)C6)cccc54)nc23)c1F)c1cccc(Cl)c1Cl`, for which the IC50 is less than 500 nM.

For `O=S(=O)(Nc1ccc(F)c(Nc2ncnc3ccc(-n4cc(S(=O)(=O)N5CC(CO)C5)c5ccccc54)nc23)c1F)c1cccc(Cl)c1Cl`, the IC50 was less than 500 nM.

For `COCCC(=O)Nc1cn(-c2ccc3ncnc(Nc4c(F)ccc(NS(=O)(=O)c5cccc(Cl)c5Cl)c4F)c3n2)c2ccccc12`, the IC50 fell in the range of 1000 to 10000 nM.

With `Cc1ncn(-c2ccc3ncnc(Nc4c(F)ccc(NS(=O)(=O)c5cccc(F)c5C)c4F)c3n2)c1C`, the 50% inhibitory concentration (IC50) was less than 500 nM.

Take `COCCN(C)S(=O)(=O)c1cn(-c2ccc3ncnc(Nc4c(F)ccc(NS(=O)(=O)c5cccc(F)c5C)c4F)c3n2)c2ccccc12`: the IC50 is less than 500 nM.

As for `O=S(=O)(Nc1ccc(F)c(Nc2ncnc3ccc(-n4cnc5c(N6CCC(C(F)(F)F)CC6)cccc54)nc23)c1F)c1cccc(Cl)c1Cl`, the IC50 is less than 500 nM.

Consider `O=S(=O)(Nc1ccc(F)c(Nc2ncnc3ccc(-c4cnc(-c5ccccc5)[nH]4)nc23)c1F)c1cccc(Cl)c1Cl`, for which the half-inhibitory concentration (IC50) fell in the range of 1000 to 10000 nM.

On to `Cc1c(F)cccc1S(=O)(=O)Nc1ccc(F)c(Nc2ncnc3ccc(-n4nc(C(=O)N(C)Cc5ccncc5)c(C)c4C)nc23)c1F`, for which the half-maximal inhibitory concentration (IC50) was less than 500 nM.

As to `O=S(=O)(Nc1ccc(F)c(Nc2ncnc3ccc(-n4cc(S(=O)(=O)C5CCN(Cc6ncc[nH]6)CC5)c5ccccc54)nc23)c1F)c1cccc(Cl)c1Cl`, the concentration for half-maximal inhibition (IC50) was in the range of 1000 to 10000 nM.

Consider `Cc1c(F)cccc1S(=O)(=O)Nc1ccc(F)c(Nc2ncnc3ccc(-n4nc(C(=O)N5CCNCC5)c5ccccc54)nc23)c1F`, for which the IC50 was less than 500 nM.

Take `O=S(=O)(Nc1ccc(F)c(Nc2ncnc3ccc(-n4cnc5c(NC6CCOCC6)cccc54)nc23)c1F)c1cccc(Cl)c1Cl`: the IC50 lay in the range of 1000 to 10000 nM.

As for `Cc1ncc(-c2ccc3ncnc(Nc4c(F)ccc(NS(=O)(=O)c5cccc(Cl)c5Cl)c4F)c3n2)s1`, the IC50 was less than 500 nM.

Turning to `O=C1CCCc2c1ccn2-c1ccc2ncnc(Nc3c(F)ccc(NS(=O)(=O)c4cccc(Cl)c4Cl)c3F)c2n1`, the IC50 lay within 1000 to 10000 nM.

As for `CN(C)CCN(C)S(=O)(=O)c1ccn(-c2ccc3ncnc(Nc4c(F)ccc(NS(=O)(=O)c5cccc(Cl)c5Cl)c4F)c3n2)c1`, the half-maximal inhibitory concentration (IC50) is 500 to 1000 nM.

For the compound `Cc1c(F)cccc1S(=O)(=O)Nc1ccc(F)c(Nc2ncnc3ccc(-n4cnc5c(N6CCC(C)(O)CC6)cccc54)nc23)c1F`, the half-maximal inhibitory concentration (IC50) was less than 500 nM.

As for `CN1CCN(c2cccc3c2ncn3-c2ccc3ncnc(Nc4c(F)ccc(NS(=O)(=O)c5cccc(Cl)c5Cl)c4F)c3n2)CC1`, the concentration for half-maximal inhibition (IC50) is less than 500 nM.

As to `O=S(=O)(Nc1ccc(F)c(Nc2ncnc3ccc(-c4cnn5c4CCCC5)nc23)c1F)c1cccc(Cl)c1Cl`, the IC50 is 1000 to 10000 nM.

As to `CCS(=O)(=O)c1cn(-c2ccc3ncnc(Nc4c(F)ccc(NS(=O)(=O)c5cccc(Cl)c5Cl)c4F)c3n2)c2ccccc12`, the IC50 was less than 500 nM.

For the compound `CCc1ccccc1S(=O)(=O)Nc1ccc(F)c(Nc2ncnc3ccc(-n4cnc5c(N)cccc54)nc23)c1F`, the IC50 is less than 500 nM.

Regarding `O=C(c1cn(-c2ccc3ncnc(Nc4c(F)ccc(NS(=O)(=O)c5cccc(Cl)c5Cl)c4F)c3n2)c2ccc(Cl)cc12)N1C2CCC1COC2`, the half-inhibitory concentration (IC50) lay within 500 to 1000 nM.

Turning to `Cc1c(F)cccc1S(=O)(=O)Nc1ccc(F)c(Nc2ncnc3ccc(-n4nc(C(=O)N5C6CCC5CN(C)C6)c5ccccc54)nc23)c1F`, the half-inhibitory concentration (IC50) was less than 500 nM.

Consider `Cc1cn(-c2ccc3ncnc(Nc4c(F)ccc(NS(=O)(=O)c5cccc(F)c5C)c4F)c3n2)nc1C(=O)N(C)Cc1ccncc1`, for which the IC50 is less than 500 nM.

Turning to `Cc1cccc2c1ncn2-c1ccc2ncnc(Nc3c(F)ccc(NS(=O)(=O)c4cccc(Cl)c4Cl)c3F)c2n1`, the IC50 lay in the range of 500 to 1000 nM.

As for `O=S(=O)(Nc1ccc(F)c(Nc2ncnc3ccc(-n4cnc5c(Cl)cncc54)nc23)c1F)c1cccc(Cl)c1Cl`, the concentration for half-maximal inhibition (IC50) fell in the range of 1000 to 10000 nM.

In the case of `CN(c1ccccc1F)S(=O)(=O)c1cn(-c2ccc3ncnc(Nc4c(F)ccc(NS(=O)(=O)c5cccc(Cl)c5Cl)c4F)c3n2)c2ccccc12`, the IC50 was in the range of 1000 to 10000 nM.

For `CN(C)S(=O)(=O)c1cn(-c2ccc3ncnc(Nc4c(F)ccc(NS(=O)(=O)c5cccc(Cl)c5Cl)c4F)c3n2)c2ccccc12`, the IC50 was less than 500 nM.

For the compound `CC(C)(O)[C@@H]1CCCN1S(=O)(=O)c1cn(-c2ccc3ncnc(Nc4c(F)ccc(NS(=O)(=O)c5cccc(Cl)c5Cl)c4F)c3n2)c2ccccc12`, the concentration for half-maximal inhibition (IC50) is less than 500 nM.
